Measurements published in US4794118A, “1,4-benzodioxane derivatives” (Eisai Co., Ltd., priority 1985, dated 1988).

Test system: arterial and venous systems
Experiment: Effects on the arterial and venous systems in anesthetized open-chest dogs
Assay type: in vivo, mongrel dogs
Details: for Max. change in mean blood pressure at diastole, Aortic / Max. change in mean blood pressure at diastole, Pulmonary: anesthetized open-chest dogs
Description: Effects on the arterial and venous systems in anesthetized open-chest dogs
Mongrel dogs of either sex, weighing 12-16 kg were subjected to inhalation anesthesia with enflurane under artificial respiration. The dogs were subjected to thoracotomy through the fourth right intercostal wall and catheters were inserted into the thoracic aorta and right pulmonary artery. The aortic and pulmonary blood pressures were measured by means of cathether tip-type piezoelectric transducers.
Test compounds were cumulatively administered with intervals of 30 minutes either intravenously or intraduodenally through catheters placed in the left femoral vein and duodenum.

## O=[N+]([O-])O[C@H]1CO[C@H]2[C@@H]1OC[C@H]2O[N+](=O)[O-]
i.d, 30 μg/Kg
  Max. change in mean blood pressure at diastole, Aortic: -5 mm/Hg
  Max. change in mean blood pressure at diastole, Pulmonary: -0.7 mm/Hg
i.d, 100 μg/Kg
  Max. change in mean blood pressure at diastole, Aortic: -6.7 mm/Hg
  Max. change in mean blood pressure at diastole, Pulmonary: -0.7 mm/Hg
i.d, 300 μg/Kg
  Max. change in mean blood pressure at diastole, Aortic: -5.8 mm/Hg
  Max. change in mean blood pressure at diastole, Pulmonary: -1.7 mm/Hg
i.v, 30 μg/Kg
  Max. change in mean blood pressure at diastole, Aortic: -2 mm/Hg
  Max. change in mean blood pressure at diastole, Pulmonary: -2.5 mm/Hg
i.v, 100 μg/Kg
  Max. change in mean blood pressure at diastole, Aortic: 0 mm/Hg
  Max. change in mean blood pressure at diastole, Pulmonary: -2.8 mm/Hg
i.v, 300 μg/Kg
  Max. change in mean blood pressure at diastole, Aortic: -6 mm/Hg
  Max. change in mean blood pressure at diastole, Pulmonary: -3.8 mm/Hg
intravenous, dogs, dose-range 30 times larger than that of compound A
  effect on the aortic pressure: minimum
